Experimental data as given in ChEMBL document CHEMBL1156629, “Synthesis and discovery of high affinity folate receptor-specific glycinamide ribonucleotide formyltransferase inhibitors with antitumor activity” (J Med Chem, 2008).

Test: cells
Details: Cricetulus griseus, RT16

Question: Which IC50 does the source give for `CN(Cc1cnc2nc(N)nc(N)c2n1)c1ccc(C(=O)N[C@@H](CCC(=O)O)C(=O)O)cc1` [METHOTREXATE] here?
Answer: The IC50 was 461 nM.
